Drawing on PubChem BioAssay AID1508640 (National Center for Advancing Translational Sciences (NCATS), 2021), this text covers activity, negative = inhibition for 1 compound.

The chains behind the UniProt entries cited, without tags or fusion partners.
UniProt P08659, whole entry: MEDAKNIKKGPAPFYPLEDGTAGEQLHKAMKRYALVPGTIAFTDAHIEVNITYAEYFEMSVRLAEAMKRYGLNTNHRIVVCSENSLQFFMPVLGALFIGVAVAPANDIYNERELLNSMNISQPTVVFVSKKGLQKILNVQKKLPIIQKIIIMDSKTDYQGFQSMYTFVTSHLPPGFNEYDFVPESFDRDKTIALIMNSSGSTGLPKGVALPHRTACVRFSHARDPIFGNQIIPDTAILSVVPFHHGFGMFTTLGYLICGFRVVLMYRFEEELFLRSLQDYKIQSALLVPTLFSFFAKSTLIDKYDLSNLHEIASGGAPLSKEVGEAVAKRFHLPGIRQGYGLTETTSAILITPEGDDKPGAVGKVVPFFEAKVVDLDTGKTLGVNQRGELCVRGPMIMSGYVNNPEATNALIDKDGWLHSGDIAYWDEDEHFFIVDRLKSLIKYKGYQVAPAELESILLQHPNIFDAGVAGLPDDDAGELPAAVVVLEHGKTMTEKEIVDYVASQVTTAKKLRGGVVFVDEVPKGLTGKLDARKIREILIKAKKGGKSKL

Molecules are shown by their SMILES. This is a selection; strong and weak results do not stand in their true shares. Results filed as inconclusive are left out. The source made the active and inactive calls. The call rests on the fitted dose curve; in most records, active means well fitted inhibition curve with a large enough effect; inconclusive means small, poorly fitted or top-dose-only effect, or another doubt; inactive means no such curve, though single readings can be large or run the other way.

This assay deals with Luciferin 4-monooxygenase (Photinus pyralis) (UniProt P08659). Kind of assay: Biochemical FLuc counterscreen for small molecule modulators of PMP22 gene expression. Further: % of control where 0% means no effect. The note with it: purified P. pyralis FLuc, luminescence, 10 min; at 57.5 µM (top of the series). From the text: Assay Provider: Jim Inglese Ph.D. National Center for Advancing Translational Science, National Institutes of Health, Rockville, MD CMT is a heterogeneous group of neurological disorders that affect approximately 1 in 2,500 people. In particular, the most common form of CMT, CMT1A is genetically linked to the duplication of the PMP22 gene which leads to Schwann cell overexpression, thus manifesting itself as a typical case of dose-sensitive diseases. […] We can further discriminate the effect of all transcriptionally active molecules on PMP22 translation or stability with an assay that incorporates a short NLuc peptide (HiBiT) at the C-terminus of expressed PMP22 (S16(f8) PMP22-HiBiT) allowing alpha complementation and luminescence detection of membrane-associated PMP22 protein. […] Miniaturization of these assays to 1536-well plate format for quantitative high throughput screening (qHTS) yielded rich data sets immediately from the qHTS assay (S16(c9) Pmp22-F2sN), when compared with data from a cell viability assay (Cell TiterGlo) to identify compounds that decreased the output signals through cellular toxicity to streamline the selection process of actives for subsequent characterization using the HiBiT assay (S16(f8) PMP22-HiBiT). […]
In general terms: Counterscreens check selectivity or assay interference.

For the compound `CC(C)(C)c1ccc(C(=O)NCC2(N3CCOCC3)CCCCC2)cc1`, the activity, negative = inhibition is inactive: 0.316%.
